Assay results reported in article PMC11876601 (Molecular Systems Biology, 2025).
Like-named read-outs stand apart in the source and are kept apart here.

Tests used:
Format in all cases: cell-based, human
13 PDAC cell lines = experiment: Phenotypic drug combination viability screen (ATPlite, 72 h), cell line panel
Protocol: (§1) Cell viability was assessed by measuring ATP levels to indicate metabolic activity.
(§2) Afterward, small amounts were transferred to 384-well intermediate plates (Greiner Bio-One GmbH, Germany). […] For drug combination screening, 1000 to 5000 cells were seeded into 384-well plates (CulturPlate™, Perkin Elmer, MA, USA) using a Multidrop™ Combi Reagent Dispenser (Thermo Scientific, MA, USA) in 50 µl medium per well 24 h prior to drug treatment (seeding densities see Appendix Table S1). […] The final DMSO concentration in each well was 0.2%. […] Eight wells per plate without library drug served as negative controls, and sixteen wells per plate containing 5 µM Staurosporine served as positive controls. Control plates not containing any drug were used to correct for incubation effects, and data quality was assessed by calculation of Z-prime of positive and negative controls according to1 Z-prime=1−3SDpos+3SDneg/[…] where SD is the standard deviation. […] Dose–response curves from the experimental and hypothetical data were compared, and shifts in AUC were used to describe combination effects (AUC∆ = AUChypothetical − AUCexperimental). […] Only combinations with R^2 > 0.8 in both conditions were considered in the synergy analysis.

AsPC-1 cells = experiment: Drug combination viability screen (ATPlite, 72 h); set-up: EC50_FC_GEM low / EC50_FC_GEM high: unit not given beside the values
Protocol: as §1, §2

PANC-1 cells = experiment: Drug combination viability screen (ATPlite, 72 h); set-up: EC50_FC_GEM low / EC50_FC_GEM high: unit not given beside the values
Protocol: as §1, §2

PaTu-8988-T cells = experiment: Drug combination viability screen (ATPlite, 72 h); set-up: EC50_FC_GEM low / EC50_FC_GEM high: unit not given beside the values
Protocol: as §1, §2

[1] = test system: p-sites in DNA-damaged AsPC-1 cells; experiment: decryptM dose-resolved phosphoproteomics of ATRi in GEM-pre-treated cells; conditions: for EC50: Homo sapiens
Protocol: Cell culture medium was replaced 24 h after seeding. […] For time point 0, AsPC-1 cells were treated with a vehicle and lysed immediately. The final DMSO concentration in all experiments was 0.2%.
Briefly, cells were washed twice with PBS and lysed in SDS lysis buffer (2% SDS in 40 mM Tris-HCl, pH 7.6), followed by sonication for 10 min (30 s on/30 s off) using a Bioruptor (Diagenode). For DNA hydrolysis, samples were boiled at 95 °C for 10 min and incubated with 2% trifluoroacetic acid (TFA) for 1 min, before the reaction was quenched using 4% N-methylmorpholine. Lysate was cleared by centrifugation at 11,000 × g for 5 min and protein concentration was determined using the Pierce BCA Protein Assay Kit (Thermo Scientific).
Using 70% ethanol, samples were then precipitated on beads, followed by washing thrice with 80% ethanol and once with 100% acetonitrile. Subsequently, proteins were reduced and alkylated using 10 mM TCEP, 50 mM chloroacetamide, and 2 mM CaCl2 in 100 mM EPPS/NaOH, pH 8.5 for 1 h at 37 °C, followed by tryptic digestion at 37 °C for 16 h. Peptides were acidified with 1% TFA and desalted on Chromabond HLB plates (30 µm particle size, 10 mg capacity, Machery-Nagel), using 0.1% TFA for equilibration and sample loading, and 0.1% TFA in 70% acetonitrile for peptide elution. Recovered peptides were freeze-dried by vacuum-centrifugation and stored at −20 °C.
Depending on the experiment, samples were either labeled with TMT-11plex (decryptM), TMT-10plex (non-decryptM, quadruplicates), or TMTpro reagent (time-series; all Thermo Scientific). Therefore, dried peptides were reconstituted in 15 µl 100 mM EPPS, pH 8.5 and each treatment condition was labeled with one channel of the respective TMT reagent (5 µl of 25 µg/µl reagent, Appendix Tables S4–S6). The reaction was incubated for 1 h at 23 °C and subsequently quenched with 0.4% hydroxylamine. Then, samples were pooled, acidified with 1% formic acid, and freeze-dried by vacuum-centrifugation. Labeled peptide pools were desalted on C18 Sep-Pak cartridges (37–55 µm particle size, 50 mg capacity, Waters), using 0.1% formic acid as equilibration solvent, and 0.1% formic acid in 60% acetonitrile was used as elution solvent. Eluted peptides were freeze-dried and stored at −20 °C until further use.
Basic reversed-phase (bRP) fractionation of peptides was performed on a Vanquish HPLC (Thermo Scientific). In short, dried peptides were reconstituted in 200 µl 25 mM ammonium bicarbonate, pH 8.0 and directly injected onto a Waters BEH130 XBridge C18 column (3.5 µm, 4.6 × 250 mm). […] Using an automated fraction collector, 96 fractions were collected between min 7 and 55 after injection. Fractions were acidified with 1% formic acid and pooled to 48 fractions, before they were freeze-dried and stored at −20 °C.
Immobilized metal ion affinity chromatography (IMAC) enrichment of phosphorylated peptides was performed on the Bravo automated liquid handling platform using AssayMAP Fe(III)-NTA cartridges (Agilent). In brief, the 48 dried peptide fractions were reconstituted in 0.1% TFA in 80% acetonitrile and further pooled to 12 fractions (200 µl final volume per well). The phosphopeptide enrichment protocol embedded in the Agilent AssayMAP Bravo Protein Sample Prep Workbench v2.0 software was run. Thereby, the cartridges were first primed with 150 μl 0.1% TFA in acetonitrile at 300 μl/min, and equilibrated with 150 μl 0.1% TFA in 80% acetonitrile at 10 μl/min. Then, pooled fractions were loaded at 5 µl/min and further washed three times with 150 μl 0.1% TFA in 80% acetonitrile at 50 μl/min. Enriched peptides were eluted with 60 μl 1% ammonium hydroxide at 5 μl/min.

## C[C@@H]1COCCN1c1cc(-c2ccnn2C)c2ccnc(-c3ccn[nH]3)c2n1 [Elimusertib]
13 PDAC cell lines
  improvement of EC50 upon combination with GEM: > 10 fold
  number of cell lines with synergy with GEM: 12 cell lines
AsPC-1 cells
  EC50_FC_GEM high: 271.98
  EC50_FC_GEM low: 31.19
  EC50_log2FC_GEM high: 8.09
  EC50_log2FC_GEM low: 4.96
  Synergy: TRUE
  any_comb_pEC50_greater6: TRUE
AsPC-1 cells; Homo sapiens, ASPC1, read-out: EC50 (viability)
  EC50: 58 nM
PANC-1 cells
  EC50_FC_GEM high: 42.86
  EC50_FC_GEM low: 8.97
  EC50_log2FC_GEM high: 5.42
  EC50_log2FC_GEM low: 3.16
  Synergy: TRUE
  any_comb_pEC50_greater6: TRUE
PaTu-8988-T cells
  EC50_FC_GEM high: 159.08
  EC50_FC_GEM low: 9.69
  EC50_log2FC_GEM high: 7.31
  EC50_log2FC_GEM low: 3.28
  Synergy: TRUE
  any_comb_pEC50_greater6: TRUE
[1]; ASPC1, read-out: EC50 of the majority of pSQ/pTQ sites
  EC50: ~10 nM
[1]; ASPC1, read-out: median EC50 across all drug-regulated pSQ/pTQ-sites
  EC50: 10 nM
[1]; ASPC1, read-out: pEC50, RALY S176 (converted)
  EC50: 12.9 nM
[1]; ASPC1, read-out: pEC50 of the majority of pSQ/pTQ sites (converted)
  EC50: ~10 nM
[1]; PHF14-pS294
  Log2 PTM response (GEM+ATRi vs. GEM): -1.3
[1]; PPM1G-pS201
  Log2 PTM response (GEM+ATRi vs. GEM): -1.3
[1]; source data 4B (p-site not named), 1 µM GEM + ATRi 1 nM
  PTM response (norm. to 1 µM GEM): 1.21
[1]; source data 4B (p-site not named), 1 µM GEM + ATRi 3 nM
  PTM response (norm. to 1 µM GEM): 1.02
[1]; source data 4B (p-site not named), 1 µM GEM + ATRi 30 nM
  PTM response (norm. to 1 µM GEM): 0.49
[1]; source data 4B (p-site not named), 1 µM GEM + ATRi 100 nM
  PTM response (norm. to 1 µM GEM): 0.36
[1]; source data 5B (p-site not named), 1 µM GEM + ATRi 1 nM
  PTM response (norm. to 1 µM GEM): 1.19
[1]; source data 5B (p-site not named), 1 µM GEM + ATRi 10 nM
  PTM response (norm. to 1 µM GEM): 0.52
[1]; source data 5B (p-site not named), 1 µM GEM + ATRi 100 nM
  PTM response (norm. to 1 µM GEM): 0.14
[1]; source data 5B (p-site not named), 1 µM GEM + ATRi 300 nM
  PTM response (norm. to 1 µM GEM): 0.12
[1]; source data 5B (p-site not named), 1 µM GEM + ATRi 1000 nM
  PTM response (norm. to 1 µM GEM): 0.14
[1]; source data 5B (p-site not named), 1 µM GEM + ATRi 3000 nM
  PTM response (norm. to 1 µM GEM): 0.12
[1]; source data 5B (p-site not named), 1 µM GEM + ATRi 10000 nM
  PTM response (norm. to 1 µM GEM): 0.13
